The target in this experiment is T1, Adenosine deaminase (Homo sapiens, UniProt P00813).
T1 sequence (P00813 whole entry): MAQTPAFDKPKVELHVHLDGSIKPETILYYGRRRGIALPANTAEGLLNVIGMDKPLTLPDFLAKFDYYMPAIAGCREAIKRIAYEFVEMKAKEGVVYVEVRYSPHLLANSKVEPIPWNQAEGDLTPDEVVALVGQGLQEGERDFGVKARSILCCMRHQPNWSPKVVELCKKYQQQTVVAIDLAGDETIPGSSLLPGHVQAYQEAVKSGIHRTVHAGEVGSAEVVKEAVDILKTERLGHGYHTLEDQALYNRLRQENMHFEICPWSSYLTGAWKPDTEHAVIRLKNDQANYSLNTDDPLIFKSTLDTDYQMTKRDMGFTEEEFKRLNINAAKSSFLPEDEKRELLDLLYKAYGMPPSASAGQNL

SMILES strings stand for the structures.

From ChEMBL document CHEMBL1148364, “Structure-based design, synthesis, and structure-activity relationship studies of novel non-nucleoside adenosine deaminase inhibitors” (J Med Chem, 2004) come the findings set out here.

By Ki is commonly meant the dissociation constant of the complex between target and ligand, obtained from inhibition or displacement. Low readings indicate higher affinity, high ones lower affinity. With `NC(=O)c1cn([C@@H](CO)CCn2ccc3ccc(NC(=O)CCCCc4ccccc4)cc32)cn1`, the affinity, expressed as Ki, was 11 nM.

In turn, `NC(=O)c1cn([C@@H](CO)CCn2ccc3ccc(NC(=O)NCc4ccccc4)cc32)cn1` displayed a Ki of 7.5 nM.

`NC(=O)c1cn([C@@H](CO)CCn2ccc3ccc(NC(=O)CCc4ccccc4)cc32)cn1` returned a Ki of 30 nM.
